# scFv variants of Ab-14 (heavy chain) against a SARS-CoV-2 spike peptide

Source: Engelhart et al. 2022 (doi:10.1038/s41597-022-01779-4), MIT Lincoln Laboratory and A-Alpha Bio; data file from the FLAb repository.

The target is the same throughout: PDVDLGDISGINAS, from the HR2 region of SARS-CoV-2 spike.

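Phage display of a naive human antibody library on the peptide gave the parent. In library AAYL49, one, two or three CDR residues were substituted; doubles and triples were drawn at random. AlphaSeq pools MATa yeast showing the antibodies with MATalpha yeast showing the peptide. Mating (16 h, 30 °C) was followed by selection of diploids and sequencing of their barcodes. A regression on co-assayed BCL2-family reference pairs converts the normalised counts of each replicate to an apparent Kd. The assay was run in three technical replicates.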

Each scFv is VH, a 15-residue (Gly4Ser)3 linker, VL, as in the parent Ab-14, and differs from it in the CDRs of the heavy chain only.
VH: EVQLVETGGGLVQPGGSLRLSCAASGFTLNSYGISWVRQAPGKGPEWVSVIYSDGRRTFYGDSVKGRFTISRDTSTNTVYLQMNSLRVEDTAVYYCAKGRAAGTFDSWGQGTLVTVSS
VL: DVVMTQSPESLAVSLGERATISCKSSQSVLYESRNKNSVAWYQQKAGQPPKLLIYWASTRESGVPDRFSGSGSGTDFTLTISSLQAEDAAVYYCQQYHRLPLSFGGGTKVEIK

Positions count from residue 1 of the parent VH; R56M puts M in place of R. Affinities are written as log10 Kd with Kd in nM; a lower number is a better binder. Where no diploid with the target was found in that replicate, the entry reads "n.d.": below detection, most likely a poor binder, though not proof of it. Parent in this assay: reference entry 0.65, copy in this library 4.11 (one replicate of three).

{"changes": "R56M/D62G/R100A", "replicates, log10 nM": "1.97 1.71 2.23"}
{"changes": "N30T/S31T/I51C", "replicates, log10 nM": "3.63 5.06 n.d."}
{"changes": "G55N/V64D/A102T", "replicates, log10 nM": "6.17 5.13 5.64"}
{"changes": "F27E/Y52N/A101P", "replicates, log10 nM": "n.d. 5.31 3.45"}
{"changes": "V50P/S63V/R100M", "replicates, log10 nM": "n.d. n.d. n.d."}
{"changes": "I34Q/S35Q/Y52I", "replicates, log10 nM": "n.d. n.d. n.d."}
{"changes": "L29Q/T104P", "replicates, log10 nM": "4.02 3.45 n.d."}
{"changes": "I51Q/D54N", "replicates, log10 nM": "n.d. n.d. n.d."}
{"changes": "I34E/A102W", "replicates, log10 nM": "n.d. n.d. n.d."}
{"changes": "S31H/R56N/R100Q", "replicates, log10 nM": "0.73 0.88 0.77"}
{"changes": "G26T/G99F/A102V", "replicates, log10 nM": "n.d. n.d. n.d."}
{"changes": "G26W/S31H/D106R", "replicates, log10 nM": "n.d. n.d. n.d."}
{"changes": "G33F/F105N", "replicates, log10 nM": "n.d. n.d. n.d."}
{"changes": "G55L/A102Q", "replicates, log10 nM": "n.d. 3.01 n.d."}
{"changes": "Y32L/R57C/F105V", "replicates, log10 nM": "n.d. n.d. n.d."}
{"changes": "N30P/S31Y/K65G", "replicates, log10 nM": "n.d. n.d. n.d."}
{"changes": "S35M/R56H/D62P", "replicates, log10 nM": "n.d. n.d. n.d."}
{"changes": "G26E/Y52N/D106S", "replicates, log10 nM": "2.84 n.d. n.d."}
{"changes": "L29F/G33N/S107H", "replicates, log10 nM": "n.d. n.d. n.d."}
{"changes": "R56Y/K65M/G103Y", "replicates, log10 nM": "1.71 1.37 1.58"}
{"changes": "V50H/S63T/F105H", "replicates, log10 nM": "n.d. 4.98 n.d."}
{"changes": "G26T/Y60F/S107I", "replicates, log10 nM": "n.d. n.d. n.d."}

Picked from the list: the 3 lowest averages where every replicate gave a value.

{"changes": "S31H/R56N/R100Q", "replicates, log10 nM": "0.73 0.88 0.77"}
{"changes": "R56Y/K65M/G103Y", "replicates, log10 nM": "1.71 1.37 1.58"}
{"changes": "R56M/D62G/R100A", "replicates, log10 nM": "1.97 1.71 2.23"}

Three control strains display no target. For library AAYL49, 15% of the pairings with them gave a signal, with a median of 4.06 and one signal in twenty below 2.83, so weak values seen in few replicates may be background.